Compound activity (PubChem)
This is a sample that favours compounds with a hit; in the whole collection about 3.7% have one here.
Nrf2 activator = Nrf2 pathway activation; AREc32 ARE-luciferase reporter (MCF7-derived line), luminescence, 24 h; Potency, µM (series often up to 46.1 µM), for the others: top-dose activation, usual class: activators; hit rate 0.31% among 410,000; note: potency is the fitted concentration of half-maximal effect; % of control where 0% means no effect; nearly all actives have a fitted effect of over 65% in size
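ARE activation measured as luciferase luminescence (Steady-Glo, 30 min RT) in AREc32_Fluc cells after 24 hr compound exposure at 37 deg C, 5% CO2; cells seeded overnight at 1000/well in OPTI-MEM, 5% FBS.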
Nrf2 inh = Nrf2 pathway inhibition | hit rate 2.1% among 360,000 | Potency, µM (doses to about 46 µM), for the others: at the top dose activity change, negative = inhibition, most hits filed as inhibitors | AID 504444 | A549 ARE-Fluc reporter, luciferase luminescence, 18-24 h; note: potency is the fitted concentration of half-maximal effect; % is set by controls: 0 for no effect and ±100 for the full control effect; nearly all actives have a fitted effect of over 60% in size
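A549 ARE_Fluc cells, 5000/well, 5% FBS OPTI-MEM; compounds in dose-response, 18-24 h at 37 °C/5% CO2; CellTiter-Fluor viability read (Ex 405/Em 525), then BugLite luciferase luminescence = Nrf2 activity.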
A549 tox = A549 cytotoxicity, counter-screen for Nrf2 inhibitors. Potency, µM (titrated, usually from 46 µM), inactives show at the top dose activity change, negative = cytotoxicity, actives largely listed as inhibitors. hit rate 0.16% among 390,000. A549 ARE-Fluc cells, CellTiter-Fluor viability, 18-24 h; note: potency is the fitted concentration of half-maximal effect; % is set by controls: 0 for no effect and ±100 for the full control effect
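Cytotoxicity counterscreen: CellTiter-Fluor fluorescence was measured in A549 ARE_Fluc cells after 18-24 h of compound exposure in a concentration series. The subsequent BugLite luminescent read reports ARE-luciferase activity.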
TCR act = T cell receptor activation | primary human leukocytes, anti-CD3, IL-2 HTRF, 48 h | Potency, µM (series often up to 9.22 µM), inactives show at the top dose activation of IL-2 secretion, usual class: activators | 330,000 tested, under 10 active; note: % of control where 0% means no effect
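IL-2 release read by HTRF sandwich (Eu cryptate donor, d2 acceptor, 665 nm emission) after 48 hr exposure of primary human leukocytes to compound together with anti-CD3 beads in the absence of co-stimulatory signals.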
ClpP mod = qHTS Assay for Activators of ClpP | ATP-dependent Clp protease proteolytic subunit (Bacillus subtilis (strain 168)), P80244 | purified B. subtilis ClpP, FRET peptide cleavage, 20 min | Potency, µM (top dose mostly 57.5 µM), inactives show at the highest dose activity change, negative = active | hit rate 1.9% among 340,000 | AID 651965, 2013; active = well fitted falling curve with a large enough effect; inconclusive = small, poorly fitted or top-dose-only effect; inactive = no such curve, though single readings can be large or run the other way; note: potency is the fitted concentration of half-maximal effect; the source files actives as falling curves though it sought activators and does not explain the sign; nearly all actives have a fitted effect of over 65% in size
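FRET quenching reversal measured ClpP activation: 10 microg/mL B. subtilis ClpP at pH 8 with the FRET-FV decapeptide, read at 430 nm after 320 nm excitation. The 20-min minus 0-min signal was scaled between DMSO/no-enzyme wells and ADEP (5.8 microM final).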
miR-21 reporter = miR-21 reporter, rising signal. 340,000 tested, under 10 active. Potency, µM (highest dose often 38.3 µM), for the others: at the highest dose reporter change, positive = more light. HeLa miR-21 FLuc reporter, luciferase, 48 h. AID 2288; active = well fitted rising curve with a large enough effect; inconclusive = small, poorly fitted or top-dose-only effect; inactive = no such curve, though single readings can be large or run the other way;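 further: % of control where 0% means no effect; miR-21 action dims this reporter so a rising signal means less miR-21 action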
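Using DMEM plus 10% FBS, HeLa miR-21-FLuc cells are incubated with test compounds (final up to about 40uM) for 48 hours; firefly luciferase signal is then imaged following reagent-mediated lysis.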
* hit, by the source's call; u = inconclusive; x = no result; [ ] = remark or other dose. Unless noted, calls come from the whole dose curve; as a rule, active = well fitted curve in the direction sought with a large enough effect; inconclusive = small, poorly fitted or top-dose-only effect, or another doubt; inactive = no such curve, though single readings can be large; an effect the other way counts as inactive or inconclusive.

(1) CC(=NNC(=S)N1CC2CCC(CC2)C1)c1cccc(C)n1
(2) O=C(COc1ccccc1C(=O)Nc1cccc([N+](=O)[O-])c1)Nc1ccc(Br)cc1
(3) O=C(c1cccc(Cl)c1)N1CCN(c2ccccn2)CC1
(4) O=C(c1c(Cl)cccc1Cl)N1CCN(c2ccccn2)CC1
(5) O=C(CSCc1ccccc1Cl)N1CCN(c2ccccn2)CC1
(6) O=C(c1ccc(S(=O)(=O)c2cccc(Cl)c2)c([N+](=O)[O-])c1)N1CCN(c2ccccn2)CC1
(7) O=C(CSc1ccccc1)N1CCN(c2ccccn2)CC1
(8) CCCCNC(=O)C1C(c2ccc(OC)cc2)=Nc2ccccc2N1C(=O)c1ccncc1 (centres undefined)

| Assay by compound | 1 | 2 | 3 | 4 | 5 | 6 | 7 | 8 |
| --- | --- | --- | --- | --- | --- | --- | --- | --- |
| Nrf2 activator | 17% | x | 0% | 0% | 3% | -2% | 5% | x |
| Nrf2 inh | u | x | -9% | x | -34% | 16µM* | 10% | x |
| A549 tox | 9.2µM* | x | -8% | 1% | 1% | u | 14% | x |
| TCR act | 7% | x | -4% | -2% | 6% | -2% | -4% | x |
| ClpP mod | -29% | -2% | 3% | 32µM* | 32µM* | x | x | -3% |
| miR-21 reporter | x | x | -8% | -3% | -50% | u | -34% | x |

(9) CCCNC(=O)c1nnsc1S(=O)(=O)c1ccc(Cl)cc1
(10) CCCNC(=O)c1nnsc1S(=O)c1ccc(Cl)cc1 (centres undefined)
(11) COc1ccc(CC(=O)N2CC(=O)Nc3ccc(F)cc3C2c2ccccc2)cc1 (centres undefined)
(12) CC(C)c1ccc(C2C3=C(CC(C)(C)CC3=O)NC3=C2C(=O)c2ccccc23)cc1 (centres undefined)
(13) CC1(C)CC(=O)C2=C(C1)NC1=C(C(=O)c3ccccc31)C2c1ccccc1 (centres undefined)
(14) CCC(=O)C1=C(c2ccc(OC)c(OC)c2)N(C(=O)CC)n2c(CC)nnc2S1
(15) CC1(C)CC(NC(=S)NC2CC2)CC(C)(C)N1
(16) N#CCSc1ccccc1NC(=O)CN1C(=O)C(=O)N(Cc2ccccc2)C1=O

| Assay by compound | 9 | 10 | 11 | 12 | 13 | 14 | 15 | 16 |
| --- | --- | --- | --- | --- | --- | --- | --- | --- |
| Nrf2 activator | -3% | -2% | 0% | 0% | 3% | 8% | 0% | 3% |
| Nrf2 inh | 23µM* | -3% | -12%[9.27 µM] | 23µM* | -21% | 23µM* | 1% | 1% |
| A549 tox | u | -1% | 13% | 16µM* | u | -8% | 0% | -2% |
| TCR act | 3% | 6% | x | 5% | 3% | x | 2% | -40% |
| ClpP mod | x | x | -3% | 0% | -1% | 3% | 35µM* | -1% |
| miR-21 reporter | u | u | 7% | u | 17% | 6% | 0% | x |

(17) C[N+]1(CC(=O)c2ccc(Oc3ccccc3)cc2)CCOCC1
(18) O=C(NC1CCOC1=O)OCc1ccccc1 (centres undefined)
(19) Cc1ccccc1Cn1nc(C)c(NC(=O)c2noc3c2CC(C(C)(C)C)CC3)c1C (centres undefined)
(20) Cc1cc(C)c(-c2cc(C(F)(F)F)no2)c(=O)[nH]1
(21) CCOc1ccc(OCC)c(NC(=O)CN2CCN(CC(=O)NC(C)C)CC2)c1
(22) Cc1ccc(S(=O)(=O)N(C)CCCC(=O)Nc2ccc(F)cc2)cc1
(23) Cc1ccc(S(=O)(=O)N(C)CCCC(=O)Nc2ccncc2)cc1
(24) COc1ccc(-c2cnc(C(O)c3ccc(OC)c(F)c3)[nH]2)cc1 (centres undefined)

| Assay by compound | 17 | 18 | 19 | 20 | 21 | 22 | 23 | 24 |
| --- | --- | --- | --- | --- | --- | --- | --- | --- |
| Nrf2 activator | x | 0% | 0% | 1% | 2% | 2% | -1% | 1% |
| Nrf2 inh | x | x | 8.2µM* | -20% | u | -20% | 9.2µM* | x |
| A549 tox | x | x | -6% | -4% | 8% | -2% | -6% | x |
| TCR act | x | x | -1% | 1%[46.1 µM] | 0% | -1% | 1% | x |
| ClpP mod | 1% | -4% | 0% | 18µM* | -4% | -3% | -2% | -3% |
| miR-21 reporter | x | x | 11% | 1% | 24% | 18% | 20% | x |

An excerpt from above in order of SMILES length, falling:
(13) CC1(C)CC(=O)C2=C(C1)NC1=C(C(=O)c3ccccc31)C2c1ccccc1 (centres undefined)
(24) COc1ccc(-c2cnc(C(O)c3ccc(OC)c(F)c3)[nH]2)cc1 (centres undefined)
(20) Cc1cc(C)c(-c2cc(C(F)(F)F)no2)c(=O)[nH]1

| Assay by compound | 13 | 24 | 20 |
| --- | --- | --- | --- |
| Nrf2 activator | 3% | 1% | 1% |
| Nrf2 inh | -21% | x | -20% |
| A549 tox | u | x | -4% |
| TCR act | 3% | x | 1%[46.1 µM] |
| ClpP mod | -1% | -3% | 18µM* |
| miR-21 reporter | 17% | x | 1% |

Next section
(25) O=S1(=O)N=C(Oc2ccc(C(F)(F)F)cc2)c2ccccc21
(26) CCC(CC)C(=O)Nc1nnc(-c2cccs2)s1
(27) CN1CCN(CC(=O)Nc2nnc(-c3cccs3)s2)CC1
(28) COc1cc(CC(=O)C(=O)O)oc(=O)c1
(29) Cc1c(NS(=O)(=O)c2ccc(C(C)(C)C)cc2)c(=O)n(-c2ccccc2)n1C
(30) Cc1[nH]c2ccccc2c1Cc1n[nH]c(=S)o1
(31) S=c1[nH]nc(Cc2cccc3ccccc23)o1
(32) C/C(=N\Nc1nccnc1Cl)c1ccc(Br)cc1

| Assay by compound | 25 | 26 | 27 | 28 | 29 | 30 | 31 | 32 |
| --- | --- | --- | --- | --- | --- | --- | --- | --- |
| Nrf2 activator | x | 15% | 10% | -1% | 0% | -1% | 0% | 11µM* |
| Nrf2 inh | 7% | -28% | u | x | -3% | 2% | -9% | 13% |
| A549 tox | 1% | -8% | -3% | x | 14% | 0% | 9% | 0% |
| TCR act | x | 0% | 6%[46.1 µM] | x | x | -2% | 3%[46.1 µM] | 1% |
| ClpP mod | x | 25µM* | 22µM* | -3% | 0% | -7% | 28µM* | -1% |
| miR-21 reporter | x | -28% | -24% | x | -16% | -1% | -6% | -47% |

(33) OCCCCNc1cccc2ccccc12
(34) COc1cc(/C(C)=N/NC(=O)c2ccc(CSc3nncn3C)cc2)cc(OC)c1OC
(35) COc1ccc(/C(C)=N/NC(=O)c2ccc(CSc3cccc4cccnc34)cc2)cc1OC
(36) C/C(=N\NC(=O)c1ccc(N)cc1)C1CC1
(37) C/C(=N\NC(=O)c1ccc(CSc2cccc3cccnc23)cc1)C1CCCCC1
(38) Cc1ccc(-n2nc3c(N4CCC(C(=O)NC5CCC(C)CC5)CC4)nnc(C)c3c2C)cc1 (centres undefined)
(39) COc1ccc(CNC(=O)C(=O)NCC(c2cccs2)S(=O)(=O)c2cccs2)cc1 (centres undefined)
(40) CCOc1ccc(S(=O)(=O)n2ccc(C)n2)c2ccccc12

| Assay by compound | 33 | 34 | 35 | 36 | 37 | 38 | 39 | 40 |
| --- | --- | --- | --- | --- | --- | --- | --- | --- |
| Nrf2 activator | 4% | -1% | 2% | -1% | 0% | 5% | 0% | 0% |
| Nrf2 inh | 10% | 3% | u | 11% | -16% | 18% | x | 23µM* |
| A549 tox | -7% | 2% | -6% | 8% | 10% | 2% | 0% | u |
| TCR act | 0% | 0% | -5% | 5% | -2%[46.1 µM] | x | x | -5% |
| ClpP mod | 16µM* | -1% | 22µM* | -4% | 28µM* | u | 0% | -16% |
| miR-21 reporter | -5% | -2% | -15% | -28% | -9% | -4% | 5% | -10% |

(41) CCOc1ccc(S(=O)(=O)N2CCCCC2)c2ccccc12
(42) CCC(c1nnc(SCC(=O)Nc2cc(S(C)(=O)=O)ccc2Cl)n1Cc1ccccc1)N(C)C (centres undefined)
(43) COc1ccc(O)c(C(=O)c2cnn(C(=O)c3cccc(N(C)C)c3)c2)c1
(44) CN(C)c1cccc(C(=O)n2cc(C(=O)c3cc(F)ccc3O)cn2)c1
(45) Cc1cccc(C(=O)Nc2ccc3nc(SCC(=O)N4CCCC4)sc3c2)c1

| Assay by compound | 41 | 42 | 43 | 44 | 45 |
| --- | --- | --- | --- | --- | --- |
| Nrf2 activator | 1% | -1% | 5% | 0% | 6% |
| Nrf2 inh | u | 11% | 4% | 13% | 18µM* |
| A549 tox | -2% | u | 9% | 0% | -19% |
| TCR act | 2% | -2% | -8% | 9% | x |
| ClpP mod | -5% | 32µM* | 22µM* | 48% | -9% |
| miR-21 reporter | -22% | -4% | x | -29% | 11% |

3 compounds out of the list above, ordered by the number in ClpP mod, low to high:
No. | compound | TCR act | ClpP mod | miR-21 reporter
45 | Cc1cccc(C(=O)Nc2ccc3nc(SCC(=O)N4CCCC4)sc3c2)c1 | x | -9% | 11%
41 | CCOc1ccc(S(=O)(=O)N2CCCCC2)c2ccccc12 | 2% | -5% | -22%
44 | CN(C)c1cccc(C(=O)n2cc(C(=O)c3cc(F)ccc3O)cn2)c1 | 9% | 48% | -29%
